Values quoted from earlier work in US4762846A (priority 1986, dated 1988).

Key:
muscarinic receptors = details: in vitro, Rafferty, et al; cited from earlier work
[1] = system: benzodiazepine receptors ([3H]diazepam site); details: in vitro, Rafferty, et al; cited from earlier work

In the case of S=C=Nc1cccc(C2(N3CCCCC3)CCCCC2)c1 [Metaphit, 1-[1-(3-isothiocyanatophenyl)cyclohexyl]piperidine], the “acylation of muscarinic receptors” value (muscarinic receptors) is listed as “not to acylate opioid, muscarinic” and the “acylation of benzodiazepine receptors” value [1] is listed as “not to acylate opioid, muscarinic, or benzodiazepine receptors”.
